pIC50: −log10 of the molar value.
Molecular target: recombinant human Myt1 (Homo sapiens (Human), UniProt Q99640)
Assay: Recombinant human Myt1 kinase ADP-Glo enzymatic assay
Assay type: biochemical
Settings: read-out: Myt1 IC50, recombinant human Myt1 18 nM, ATP 10 μM

The chains behind the UniProt entries cited, without tags or fusion partners.
UniProt Q99640, whole entry: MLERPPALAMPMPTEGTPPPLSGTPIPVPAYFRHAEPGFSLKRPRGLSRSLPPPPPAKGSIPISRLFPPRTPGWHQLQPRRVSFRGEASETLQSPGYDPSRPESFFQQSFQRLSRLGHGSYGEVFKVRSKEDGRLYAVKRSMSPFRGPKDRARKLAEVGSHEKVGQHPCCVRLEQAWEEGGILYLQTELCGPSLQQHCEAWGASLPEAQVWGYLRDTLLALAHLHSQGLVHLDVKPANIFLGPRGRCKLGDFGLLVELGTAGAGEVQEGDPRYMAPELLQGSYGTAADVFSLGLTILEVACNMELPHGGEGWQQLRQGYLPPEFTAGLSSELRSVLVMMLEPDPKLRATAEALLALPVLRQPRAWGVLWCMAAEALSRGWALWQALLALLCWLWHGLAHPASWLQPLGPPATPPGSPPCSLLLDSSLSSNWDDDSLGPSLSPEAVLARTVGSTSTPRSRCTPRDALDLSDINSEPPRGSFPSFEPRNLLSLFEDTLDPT

Structure (SMILES)	pIC50
C#Cc1cnc2c(n1)c(C(N)=O)c(N)n2-c1c(C)ccc(O)c1C	> 8.00
Cc1ccc(O)c(C)c1-n1c(N)c(C(N)=O)c2nc(C3(C(F)(F)F)CC3)cnc21 [Compound 200]	< 5.70
Cc1ccc(O)c(C)c1-n1c(N)c(C(N)=O)c2nc(C(C)C)cnc21	> 8.00
CCc1cnc2c(n1)c(C(N)=O)c(N)n2-c1c(C)ccc(O)c1C	> 8.00

— patent US20240207300A1, “COMBINATION THERAPIES INCLUDING MYT1 INHIBITORS” (Repare Therapeutics Inc., priority 2021, published 2024)
